Measured values taken from ChEMBL document CHEMBL3120110, “Design, synthesis, biological evaluation, and comparative docking study of 1,2,4-triazolones as CB1 receptor selective antagonists” (Eur J Med Chem, 2014).
pKi: −log10 of the molar value.

Protein sequences, listed by entry. Tags and fused reporters are not part of them.
UniProt P20272, whole entry: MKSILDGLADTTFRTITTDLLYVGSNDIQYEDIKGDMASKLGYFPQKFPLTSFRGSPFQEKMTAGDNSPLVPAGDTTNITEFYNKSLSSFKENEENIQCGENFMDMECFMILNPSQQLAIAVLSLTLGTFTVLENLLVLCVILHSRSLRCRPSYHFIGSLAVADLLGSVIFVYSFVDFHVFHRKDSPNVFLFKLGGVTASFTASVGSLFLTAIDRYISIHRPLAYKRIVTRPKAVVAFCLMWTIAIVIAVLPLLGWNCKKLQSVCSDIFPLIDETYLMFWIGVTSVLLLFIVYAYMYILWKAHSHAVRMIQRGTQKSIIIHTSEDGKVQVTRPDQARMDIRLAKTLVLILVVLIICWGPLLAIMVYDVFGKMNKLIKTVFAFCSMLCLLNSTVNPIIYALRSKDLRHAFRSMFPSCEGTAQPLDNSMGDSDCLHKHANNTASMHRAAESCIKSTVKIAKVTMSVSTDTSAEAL

Tests used:
Cannabinoid receptor 1 = Cannabinoid receptor 1 (Rattus norvegicus, UniProt P20272); assay: Antagonist activity at rat brain CB1 receptor
Cannabinoid receptor 2 = molecular target: T1, Cannabinoid receptor 2 (Rattus norvegicus, UniProt Q9QZN9); assay: Antagonist activity at rat spleen CB2 receptor
T1 sequence (Q9QZN9 whole entry): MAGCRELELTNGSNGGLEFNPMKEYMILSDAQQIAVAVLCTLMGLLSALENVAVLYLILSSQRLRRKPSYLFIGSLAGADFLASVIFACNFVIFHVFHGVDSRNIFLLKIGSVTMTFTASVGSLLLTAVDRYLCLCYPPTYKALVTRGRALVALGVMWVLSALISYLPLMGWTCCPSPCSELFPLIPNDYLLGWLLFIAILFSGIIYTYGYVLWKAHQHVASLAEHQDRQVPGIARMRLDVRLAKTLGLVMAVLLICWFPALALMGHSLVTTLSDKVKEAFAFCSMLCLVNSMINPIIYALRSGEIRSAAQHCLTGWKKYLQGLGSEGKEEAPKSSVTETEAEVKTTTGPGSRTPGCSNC

`Cc1ccc(Cn2nc(C(=O)N[C@@H]3C(C)(C)[C@@H]4CC[C@@]3(C)C4)cc2-c2ccc(Cl)c(C)c2)cc1` [SR-144528] was tested, and the pKi (Cannabinoid receptor 1) was 6.36 and the pKi (Cannabinoid receptor 2) was 9.22.
